For this series, the system named is MK. The following applies: live-cell microscopy, GFP-β1 tubulin.

trastuzumab emtansine [T-DM1]: the MK differentiation entry is given as “inhibits”, the proPLT formation result is given as “disrupts” and the tubulin organization entry is on record as “abnormal”.

For the origin of these results see patent publication US11396016B2, “System and method for a biomimetic fluid processing” (The Brigham and Women's Hospital, Inc., priority 2013, dated 2022).
